From patent US20210024455A1 (priority 2018, published 2021)

Protein sequences, listed by entry. Tags and fused reporters are not part of them. Lines headed by an entry give the natural chain unless they say otherwise; changes in a name come on top.
UniProt Q15554: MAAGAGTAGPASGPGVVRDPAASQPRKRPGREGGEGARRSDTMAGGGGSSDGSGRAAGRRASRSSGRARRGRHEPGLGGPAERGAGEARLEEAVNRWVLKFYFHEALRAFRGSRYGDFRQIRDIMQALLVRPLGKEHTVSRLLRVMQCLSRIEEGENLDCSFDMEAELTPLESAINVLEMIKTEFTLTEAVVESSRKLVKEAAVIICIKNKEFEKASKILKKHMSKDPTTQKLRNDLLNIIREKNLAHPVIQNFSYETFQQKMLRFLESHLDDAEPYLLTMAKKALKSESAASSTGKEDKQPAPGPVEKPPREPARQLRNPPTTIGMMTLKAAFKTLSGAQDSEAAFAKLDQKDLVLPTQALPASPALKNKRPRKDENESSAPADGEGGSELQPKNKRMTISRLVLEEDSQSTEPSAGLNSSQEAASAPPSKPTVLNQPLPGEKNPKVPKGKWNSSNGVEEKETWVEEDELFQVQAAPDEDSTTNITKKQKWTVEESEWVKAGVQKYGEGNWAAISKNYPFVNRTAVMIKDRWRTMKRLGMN

How the values were obtained:
TRF2 [1] = target: T1, TRF2 (Homo sapiens, UniProt Q15554); test: DSE-FRET assay, inhibition of TRF2 binding to its telomere binding sequence; details: compound 50 μM; reduction rate of fluorescence intensity vs control without compound
HeLa1.2.11 cells [2] = test: cell growth test (cell counting); assay type: cell-based; details: for IC50: read-out: IC50, suppressing proliferation of HeLa1.2.11 cells
TRF2 [3] = target: T1, TRF2; test: fluorescent immunostaining, intracellular localization of TRF2; details: HeLa1.2.11 cells, 20 μM, 24 hours
HeLa1.2.11 cells [4] = test: FACS test of apoptosis (Annexin V-FITC); details: 20 μM, 48 hours
HeLa1.2.11 cells [5] = test: Western blot of cleaved caspase-3; details: 20 μM, 48 hours
HeLa1.2.11 cells [6] = test: telomere FISH, localization of 53BP1 in telomere (TIF); details: 10 μM, 24 hours
HeLa 1.2.11 cells = test: colony formation assay; details: 5 to 20 μM, 10 days after seeding
TRF2 [7] = target: T1, TRF2; test: chromatin immunoprecipitation (ChIP) assay using a TRF2 antibody; details: HeLa1.2.11 cells, 20 μM, 24 hours

| Compound | inhibition rate (%) in DSE FRET assay (TRF2 [1]) [%] | IC50 (HeLa1.2.11 cells [2]) [µM] | intracellular localization of TRF2 (TRF2 [3]) | Annexin V positive cells compared to DMSO control (HeLa1.2.11 cells [4]) | cleaved caspase-3 detection (HeLa1.2.11 cells [5]) | colocalization of telomere with 53BP1 (TIF) (HeLa1.2.11 cells [6]) | generation of the colony (HeLa 1.2.11 cells) | detection of telomere DNA in immunoprecipitate by TRF2 antibody, compared with DMSO control (TRF2 [7]) [%] | proliferation of cells (HeLa1.2.11 cells [2]; 5 μM, 10 μM, 20 μM, counted on days 1, 3, 5 and 7) |
| --- | --- | --- | --- | --- | --- | --- | --- | --- | --- |
| O=[N+]([O-])c1cc([N+](=O)[O-])c(Sc2ccccc2N(c2ccccc2)c2c([N+](=O)[O-])cc([N+](=O)[O-])cc2[N+](=O)[O-])c([N+](=O)[O-])c1 | 53.2 |  |  |  |  |  |  |  |  |
| Cc1ccc(N(c2ccccc2Oc2c([N+](=O)[O-])cc([N+](=O)[O-])cc2[N+](=O)[O-])c2c([N+](=O)[O-])cc([N+](=O)[O-])cc2[N+](=O)[O-])cc1 | 22.6 | 34 |  |  |  |  |  |  |  |
| O=[N+]([O-])c1cc([N+](=O)[O-])c(Oc2ccccc2N(c2ccccc2)c2c([N+](=O)[O-])cc([N+](=O)[O-])cc2[N+](=O)[O-])c([N+](=O)[O-])c1 | 49.6 | 17 |  |  |  |  |  |  |  |
| CC(C)(C)c1ccc(Oc2c([N+](=O)[O-])cc([N+](=O)[O-])cc2[N+](=O)[O-])c(N(c2ccccc2)c2c([N+](=O)[O-])cc([N+](=O)[O-])cc2[N+](=O)[O-])c1 | 62.2 | 22 | most of TRF2 is located outside the nucleus of the cell | many cells were Annexin V positive | cleaved caspase-3 was detected | colocalization of telomere with 53BP1 was observed | generation of the colony was suppressed depending on the treatment concentration | ≤ 50 | proliferation of cells was suppressed depending on the treatment concentration |
| CC(=O)c1ccc(N(c2ccccc2Oc2c([N+](=O)[O-])cc([N+](=O)[O-])cc2[N+](=O)[O-])c2c([N+](=O)[O-])cc([N+](=O)[O-])cc2[N+](=O)[O-])cc1 | 71.7 | 12 |  |  |  |  |  |  |  |
